The results in this text go back to patent US5567692A, “9-[(substituted glycyl) amido)]-6-demethyl-6-deoxytetracyclines” (priority 1995, dated 1996).

Structures are written as SMILES. Converted amounts (≈) assume the structure as drawn. Where a name gives a salt, the structure may show the parent alone.

One assay concerns Klebsiella oxytoca. Put plainly: MIC range, recent clinical and veterinary isolates. It is filed as cell-based. Conditions: 18 h, read-out: MIC Range.
In another assay the test system is Listeria monocytogenes. The assay is described as follows: MIC range, recent clinical and veterinary isolates. The assay is classed as cell-based. To be noted: 18 h, read-out: MIC Range.

Take `CN(C)CC(=O)Nc1ccc2c(c1O)C(=O)C1=C(O)[C@]3(O)C(=O)C(C(N)=O)=C(O)[C@@H](N(C)C)C3CC1C2` (stereo partly drawn) [CC, [4S-(4alpha,12aalpha)]-4-(Dimethylamino)-9-[[(dimethylamino)acetyl]amino]-1,4,4a,5,5a,6,11,12a-octahydro-3,10,12,12a-tetrahydroxy-1,11-dioxo-2-naphthacenecarboxamide dihydrochloride]: the minimum inhibitory concentration (MIC) with Klebsiella oxytoca was in the range of 0.25 to 1 µg/mL.

In the case of `CN(C)[C@@H]1C(O)=C(C(N)=O)C(=O)[C@@]2(O)C(O)=C3C(=O)c4c(O)cccc4[C@@](C)(O)[C@H]3C[C@@H]12` [T, Tetracycline], the MIC in the assay with Listeria monocytogenes fell in the range of 0.12 to 0.5 µg/mL (≈ 0.27 to 1.13 µM).
